Test results taken from PMC7221482 (Neurochemistry international, 2019).

By UniProt entry, the sequences of proteins in these tests, tags left out. Residues count along the entry.
UniProt Q8R493, 21-495: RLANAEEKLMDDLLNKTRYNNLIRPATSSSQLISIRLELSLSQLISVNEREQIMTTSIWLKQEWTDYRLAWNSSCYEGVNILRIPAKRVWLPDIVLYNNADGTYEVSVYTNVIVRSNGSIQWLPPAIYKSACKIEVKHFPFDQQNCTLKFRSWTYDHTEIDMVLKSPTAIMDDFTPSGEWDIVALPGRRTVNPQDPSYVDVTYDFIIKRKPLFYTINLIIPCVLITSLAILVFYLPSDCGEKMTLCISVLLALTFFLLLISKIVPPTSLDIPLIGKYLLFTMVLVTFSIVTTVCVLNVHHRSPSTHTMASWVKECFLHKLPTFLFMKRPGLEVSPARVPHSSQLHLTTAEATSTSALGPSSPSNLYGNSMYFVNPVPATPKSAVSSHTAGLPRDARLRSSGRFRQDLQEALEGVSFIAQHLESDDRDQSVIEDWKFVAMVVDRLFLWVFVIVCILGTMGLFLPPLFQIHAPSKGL
UniProt Q8R4G9, 26-499: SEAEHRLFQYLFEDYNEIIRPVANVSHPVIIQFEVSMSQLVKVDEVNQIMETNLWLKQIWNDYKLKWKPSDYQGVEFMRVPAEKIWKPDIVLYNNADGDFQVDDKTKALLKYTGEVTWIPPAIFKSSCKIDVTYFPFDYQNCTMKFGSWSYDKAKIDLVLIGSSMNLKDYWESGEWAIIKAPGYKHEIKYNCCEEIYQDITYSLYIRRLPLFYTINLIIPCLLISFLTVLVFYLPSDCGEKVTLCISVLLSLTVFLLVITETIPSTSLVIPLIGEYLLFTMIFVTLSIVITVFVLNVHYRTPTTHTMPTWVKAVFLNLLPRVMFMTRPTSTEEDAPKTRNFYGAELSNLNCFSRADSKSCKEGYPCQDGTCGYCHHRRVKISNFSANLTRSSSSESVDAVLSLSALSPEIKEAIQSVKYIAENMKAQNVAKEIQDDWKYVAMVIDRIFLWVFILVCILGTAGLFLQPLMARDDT

Target: habenular mα3β4* AChRs (Mus musculus, UniProt Q8R493+Q8R4G9)
Experiment: Patch-clamp recordings of ACh-evoked currents from MHb
Assay type: cell-based

CN(C)CCCC1(c2ccc(F)cc2)OCc2cc(C#N)ccc21 (racemic) [(±)-citalopram, 1-[3-(dimethylamino)propyl]-1-(4-fluorophenyl)-1,3-dihydro-5-isobenzofurancarbonitrile]
nH (Hill coefficient) (inhibition of ACh-evoked currents, MHb (VI) neurons): 0.90 ± 0.10
electrical distance (δ) of the binding site along the ion channel (one-site blocking model, Eq. (1)): 0.40
